Measured values from patent US10139410B2, “Protein-protein interaction as biomarkers” (H. LEE MOFFITT CANCER CENTER AND RESEARCH INSTITUTE, INC., priority 2011, dated 2018).

System: EGFR protein-protein interactions
Conditions: human, in vivo

COc1cc2ncnc(Nc3ccc(F)c(Cl)c3)c2cc1OCCCN1CCOCC1 [gefitinib]
interactions with EGFR (PLA): reduce interactions with EGFR
